The term Kb denotes the equilibrium dissociation constant of an antagonist, usually derived from a functional assay.

The assay concerns the target T1, acetylcholine (contracting action of the guinea pig intestine) (Cavia porcellus).
T1 construct: contracting action of the guinea pig intestine; from tissue; host or cells: guinea pig intestine
Nature of the assay: Acetylcholine antagonistic activity on contraction of guinea pig intestine. The procedure: Acetylcholine antagonistic activity was tested according to the method described by J. M. Van Rossum et al. in the Archives Internationales de Pharmacodynamie et de Therapie, vol. 143, pp. 240-246 and pp. 299-330 (1963). The pA2 is the negative of the logarithm, to the base 10, of the molar concentration of the test compound which reduced the effect of a double dose of acetylcholine on contracting action of the guinea pig intestine compared with that of a single dose.

The compound `CN1[C@@H]2CC[C@H]1C[C@@H](OC(=O)C(CO)c1ccccc1)C2` (stereo partly shown) [Atropine] gave a Kb of 1.26 nM. That is a single-digit nanomolar value.
